Laboratory results from ChEMBL document CHEMBL4011609, “Discovery of novel BRD4 inhibitors by high-throughput screening, crystallography, and cell-based assays” (Bioorg Med Chem Lett, 2017).

Key:
[1] = test system: MV4-11; assay: Antiproliferative activity against human MV4-11 cells after 3 days by Alamar blue assay; type: functional, cell-based
[2] = test system: MV4-11; assay: Antiproliferative activity against human MV4-11 cells after 7 days by Alamar blue assay; type: functional, cell-based

Which results are given for CN(CCCNc1cc(=O)oc2ccccc12)C(=O)c1cccs1?
Activity [1]: Dose-dependent effect; Activity [2]: Dose-dependent effect
